From paper PMC8500670, “A selective WDR5 degrader inhibits acute myeloid leukemia in patient-derived mouse models” (Science translational medicine, 2021) come the findings set out here.

In the experiment the target is WDR5 (Homo sapiens) (UniProt P61964). Put plainly: ITC.

Broadly, the Kd is the free concentration of one partner at which half of the binding sites on the other are occupied at equilibrium, for simple one-to-one binding. Read a high Kd as lower affinity.

Where “and” joins values, the source holds several entries; their conditions need not be identical. Identical values can stand only once.

“VCB (VHL-Elongin C-Elongin B) (from UniProt P40337)”: the Kd was 52 nM and 520 nM.
